Experiments:
[1] = tested on: amoxicillin/clarithromycin/metronidazole - susceptible strains of Helicobacter pylori; experiment: Bacteriostatic activity (MIC) against susceptible strains; format: cell-based
[2] = tested on: clarithromycin and/or metronidazole - intermediate or resistant strains of Helicobacter pylori; experiment: Bacteriostatic activity (MIC) against intermediate or resistant strains; format: cell-based; conditions: H. pylori strain no 34

Measured: MIC

CC1(C)S[C@@H]2[C@H](NC(=O)[C@H](N)c3ccc(O)cc3)C(=O)N2[C@H]1C(=O)O [Amoxicillin]
0.125 µg/mL: [1]; H. pylori strain no 21 | [1]; H. pylori strain no 29 | [2]

Reference: patent US6737441B2, “Treatment of helicobacter with isothiocyanates” (priority 2000, dated 2004)
